Values quoted from earlier work as cited in patent US20220242874A1, “CAMPTOTHECIN DERIVATIVES” (SUN PHARMA ADVANCED RESEARCH COMPANY LIMITED, priority 2019, published 2022).
Counter-ions that a name gives are not always drawn.

Test system: carboxylesterases present in liver and cancer cells
Conditions: by carboxylesterases present in liver and cancer cells; cited from earlier work

**Q.** With `CCc1c2c(nc3ccc(OC(=O)N4CCC(N5CCCCC5)CC4)cc13)-c1cc3c(c(=O)n1C2)COC(=O)[C@]3(O)CC` [Irinotecan, irinotecan hydrochloride] as the compound, how does the “share of the pro-drug converted to SN-38” value read?
**A.** 2-8%
